Compound activity from PubChem BioAssay.
ARFGAP1 inhibitor – inhibitors of rat ARFGAP1; Q62848; Arfgap1-stimulated ARF1 GTP hydrolysis, GDP FP detection; inhibition, % at 16.5 µM; 0.26% of 360,000 active; AID 651572;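 active = inhibition above a per-plate limit, mean inhibition of low control wells plus 3 SD, cut at about 25% in these data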
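System: truncated rat Arfgap1 GAP domain / Medium: HEPES-based buffer, pH 7.5 / Also added: N-terminally truncated human ARF1-GTP substrate / Incubation: enzyme reaction 120 min at 25 °C after 20 min preincubation / Measured by: FP of antibody-bound GDP Alexa 633 tracer, ex 620/em 688 nm / Replicates: singlicate, each compound tested once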
CendR NRP1 mod – NRP-1/CendR interaction modulation; O14786; FAM-RPARPAR peptide binding to NRP-1, fluorescence polarization; inhibition, % at 25 µM; 0.85% of 360,000 active;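 active = inhibition or corrected inhibition above about 18%, plus a signal ratio from 0.5 to 1.5, limit read from the data, passing the limit was not always enough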
ASAP1 inh – inhibitors of human ASAP1 ArfGAP activity; ASAP1-stimulated ARF1 GTP hydrolysis, GDP FP detection; inhibition, % at 16.5 µM; 0.19% of 360,000 active; AID 624377; in the data active = inhibition above about 25%
Yeast UUG start – modulators of start codon recognition fidelity in yeast; AID 602363; hit rate 0.13% among 350,000; activity score, % at 18.7 µM; S. cerevisiae UUG-firefly luciferase reporter, luminescence/redox ratio;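 active = replicate mean at a twofold rise or more, about +100% in these data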;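 note: firefly luciferase made from a UUG start codon reports start codon fidelity; reporter light over untreated wells divided by growth signal over untreated wells; some hits fall short of that in this replicate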
MC4R antag cAMP – antagonists of human melanocortin 4 receptor (MC4R) | P32245 | MC4R-expressing cells, MTII-stimulated cAMP, LANCE TR-FRET | inhibition, % at 6.5 µM | 0.48% of 360,000 active | AID 540295;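 active = inhibition above its plate's cutoff, the mean of tested wells on that plate plus 3 SD, cut at about 29% in these data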
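Assay system: human MC4R-expressing U2OS cells; reagent: Melanotan II stimulation of cells; dosing: 6.5 µM single dose; timing: compound 30 min, challenge 1 h, detection 1 h; signal: TR-FRET cAMP assay; replicates: one well per compound, no replicates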
MC4R ag barr – agonists of human melanocortin 4 receptor (MC4R) beta-arrestin; U2OS MC4R beta-arrestin complementation, luminescence; percent of melanotan II response, DMSO zero; activation, % at 8.9 µM; AID 540308; P32245; 0.98% of 360,000 active;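 active = activation above a per-plate cutoff, the mean activation of sample wells on that plate plus 3 SD, cut at about 8% in these data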
A number is an active result; 0 = inactive; - = not tested or not shown; ! = not confirmed by another sample. An excerpt weighted towards active compounds, which were near 2.3% of everything screened.

SMILES | ARFGAP1 inhibitor | CendR NRP1 mod | ASAP1 inh | Yeast UUG start | MC4R antag cAMP | MC4R ag barr
CC12CCCCC1N(O)CN2O (stereo unspecified) | 0 | 23.1 | 0 | 0 | 0 | 0
COc1ccc(-c2ccc([C@H]3[C@H](CO)N4CCCCN(C(=O)Cc5ccccc5)C[C@@H]34)cc2)cc1 | - | - | - | 0 | - | -
O=C(Cc1ccncc1)N1CCCCN2[C@H](C1)[C@H](c1ccc(C#CC3(O)CCCC3)cc1)[C@@H]2CO | - | - | - | 0 | - | -
C[C@@H]1O[C@@H](O[C@H]2C[C@@H](O)[C@]3(CO)[C@@H]4C(CC[C@]3(O)C2)[C@@]2(O)CC[C@H](C3COC(=O)C3)[C@@]2(C)C[C@H]4O)[C@H](O)[C@H](O)[C@H]1O (stereo partly specified) | 0 | 0 | 0 | 0 | 0 | 28.3
CN1CCN(c2ccc([N+](=O)[O-])c(Sc3ccccn3)c2)CC1 | 0 | 27.8 | 0 | - | 0 | 0
CN1CCN(c2ccc([N+](=O)[O-])c(Sc3nncn3C)c2)CC1 | 0 | 0 | 0 | - | 0 | 0
O=C(O)[C@H]1[C@H](CO)[C@H]2Cn3c(ccc(-c4ccncc4)c3=O)[C@@H]1N2C(=O)C1CCCCC1 | - | - | - | 0 | - | -
N#Cc1cccc(-c2ccc([C@@H]3[C@@H](CO)N4CCCCN(C(=O)Cc5ccccc5)C[C@@H]34)cc2)c1 | - | - | - | 0 | - | -
C=CCn1c(O)c(C(CC)=NCCC2=CCCCC2)c(=O)[nH]c1=O | 0 | 29.8 | 0 | 0 | 0 | 0
O=C1NC(=O)C(=Cc2ccc(-c3ccc(S(=O)(=O)N4CCOCC4)cc3)o2)C(=O)N1 | 0 | 0 | 0 | 0 | 35.9 | 0
O=C(O)[C@H]1[C@H](CO)[C@H]2Cn3c(ccc(C4=CCCC4)c3=O)[C@@H]1N2C(=O)Cc1ccccn1 | - | - | - | 0 | - | -
O=C1NC(=O)C(Sc2ccccc2[N+](=O)[O-])C(=O)N1 | 0 | 0 | 41.7 | 0 | 0 | 0
Cc1ccc(C(=O)C2CN3CCC2CC3)cc1 (stereo unspecified) | 0 | 26.0 | 0 | 0 | 0 | 0
Cc1ccc(C(=O)C2CN(C)CC2C(=O)c2ccc(C)cc2)cc1 (stereo unspecified) | 0 | 0 | 0 | 0 | 0 | 0
O=C(Cc1ccccn1)N1CCCCN2[C@H](CO)[C@@H](c3ccc(C#Cc4ccccc4)cc3)[C@H]2C1 | - | - | - | 0 | - | -
Cc1c(P(=S)(c2ccccc2)c2ccccc2)[n+]2ccccc2n1C | 0 | 34.2! | 0 | 0 | 0 | 0
C=CC[N+]1(C)C2CCC1CC(O)C2 (stereo unspecified) | 0 | 21.3 | 0 | 0 | 0 | 0
Cc1c(NP(=O)(C(C)(C)C)C(C)(C)C)c(=O)n(-c2ccccc2)n1C | 0 | 21.1 | 0 | - | 0 | 0
Cc1c(C=C2C(=O)NC(=O)NC2=O)c(=O)n(-c2ccccc2)n1C | 0 | 0 | 0 | 0 | 0 | 0
O=C(Cc1ccccn1)N1CCCCN2[C@H](C1)[C@@H](c1ccc(-c3ccccc3F)cc1)[C@@H]2CO | - | - | - | 0 | - | -
N#Cc1cccc(-c2ccc([C@H]3[C@H]4CN(C(=O)Cc5ccccc5)CCCCN4[C@H]3CO)cc2)c1 | - | - | - | 0 | - | -
COc1cc(C)c(CN2CCN(c3ccccc3)CC2)cc1C | 0 | 36.0 | 0 | 0 | 0 | 0
CNc1ccc2nc3ccccc3[n+](C)c2c1 | 0 | 29.1 | 0 | 0 | 0 | 0
C[n+]1c2ccccc2nc2ccc(NCCO)cc21 | 0 | 0 | 0 | 0 | 0 | 0
CC1=CC2OC3CC4OC(=O)C=CC=CC(=O)OCCC(C)C(O)C(=O)OCC2(CC1)C4(C)C31CO1 (stereo unspecified) | 0 | 0 | 0 | - | 37.1 | 8.9
CC1CCOC(=O)C=CC=CC(=O)OC2CC3OC4C5OC5(C)C(O)CC4(COC(=O)C1O)C2(C)C31CO1 (stereo unspecified) | 0 | 0 | 0 | - | 0 | 0
CCC(c1nnnn1C(C)(C)C)N1CCC2(CC1)C(=O)NCN2c1ccccc1 (stereo unspecified) | 0 | 30.2 | 0 | 0 | - | -
CSCCC(c1nnnn1C1CCCCC1)N1CCC2(CC1)C(=O)NCN2c1ccccc1 (stereo unspecified) | 0 | 23.7 | 0 | 0 | - | -
COc1cc2c(cc1OC)-c1c(OC)c(OC)cc3c1[C@H](C2)N(C)CC3 | 0 | 29.2 | 0 | 0 | 0 | 0
COC(=O)C1=C(c2cccc(OCc3ccccc3)c2)C[C@@H]2CC[C@H]1N2C | 0 | 0 | 0 | 0 | 0 | 0
